{
  "source": "ChEMBL document CHEMBL4765256",
  "about": "“Structural features and functional activities of benzimidazoles as NOD2 antagonists” (Eur J Med Chem, 2020)",
  "species": "Homo sapiens",
  "experiment": "Selectivity index, ratio of IC50 for antagonist activity at human NOD2 cells expressed in HEK293 cells assessed as reduction in MDP induced NF-kappaB activation preincubated for 1 hr followed by MDPA stimulation and measured after 18 hrs by SEAP reporter gene based spectrophotometric analysis to IC50 for antagonist activity at human NOD1 expressed in HEK293 cells assessed as reduction in C12-iEE-DAP induced NF-kappaB activation preincubated for 1 hr followed by C12-iE-DAP stimulation and measured after 18 hrs by SEAP reporter gene based spectrophotometric analysis",
  "format": "cell-based",
  "data": [
    {"smiles": "Cc1ccc(S(=O)(=O)n2c(N)nc3ccccc32)cc1", "values": [
      {"measurement": "Ratio IC50", "value": 71}
    ]}
  ]
}
